Measurements from patent publication US20260069707A1, “COMBINATION THERAPY WITH ANTIBODY-DRUG CONJUGATES AND HYALURONIDASES” (HALOZYME, INC., priority 2024, published 2026).

Experiment: Calculation of free payload:ADC following ADC administration
Conditions: Concentration (weight/mL) basis
Description: Antibody drug conjugates with thiol-malimide conjugation undergo deconjugation following administration. To assess this deconjugation, free payload: ADC was calculated rather than reverse, because for completely stable antibody, ADC:free payload would be infinity.
Antibody drug conjugates with thiol-malimide conjugation undergo deconjugation following administration. To assess this deconjugation, free payload: ADC was calculated for specific antibody drug conjugates including Trastuzumab, Polatuzumab, Enfortumab and Tisotumab.

Substance: Trastuzumab deruxtecan (Enhertu)
- free payload: ADC, AUC: 0.00444%
- free payload: ADC, Cmax: 0.00413%
